For the assay, the system named is B16 melanoma. To be noted: for MST (median survival time) / T/C: Q4D × 3, ip; for T/C: T/C ≥ […] significant.

Like-named read-outs stand apart in the source and are kept apart here.

Take `Cc1cc2c(c3oc(C(O)(CO)C4CO4)cc(=O)c13)C(=O)c1c(O)cccc1C2=O` (stereo not shown) [BU-3839T]: the “MST (median survival time)” value is, setting by setting: (0.5 mg/kg/day) 11.0 days; (1.0 mg/kg/day) 10.0 days; (2.0 mg/kg/day) “Tox”. The T/C runs as follows: (0.5 mg/kg/day) 81%; (1.0 mg/kg/day) 74%; (2.0 mg/kg/day) “Tox”. Also, the “Antitumor activity against ip-B16 melanoma” value (in words, at the doses tested) is “minimum antitumor activity”.

The T/C is the result in the treated group divided by that in the control group, in per cent.

These data come from patent US5001058A (Bristol-Myers Company, priority 1989, dated 1991).
